The target of assay [1] is Sodium-dependent serotonin transporter (Homo sapiens, UniProt P31645). In words: Displacement of [125I]methyl 3-(4-iodophenyl)-8-methyl-8-aza-bicyclo[3.2.1]octane-2-carboxylate from human recombinant SERT expressed in african green monkey COS1 cells by liquid scintillation counting. It counts as cell-based, COS-1. The procedure, abridged: (§1)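 Membranes from COS-1 cells stably expressing cloned human transporter; cells scraped, homogenized in ice-cold 150 mM NaCl/50 mM Tris/20 mM EDTA, pelleted at 12,000g, resuspended in PBSCM, stored at -80 °C. 5 µg protein/well incubated with test drug and 0.1–0.25 nM 125I-radioligand for 1 h at 20 °C. Filtered on PEI-presoaked GF/B filters, washed thrice with ice-cold water.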
(In general: In a radioligand displacement assay an active substance lowers the binding of a labelled ligand.)

By UniProt entry, the sequences of proteins in these tests, tags left out.
UniProt P31645, whole entry: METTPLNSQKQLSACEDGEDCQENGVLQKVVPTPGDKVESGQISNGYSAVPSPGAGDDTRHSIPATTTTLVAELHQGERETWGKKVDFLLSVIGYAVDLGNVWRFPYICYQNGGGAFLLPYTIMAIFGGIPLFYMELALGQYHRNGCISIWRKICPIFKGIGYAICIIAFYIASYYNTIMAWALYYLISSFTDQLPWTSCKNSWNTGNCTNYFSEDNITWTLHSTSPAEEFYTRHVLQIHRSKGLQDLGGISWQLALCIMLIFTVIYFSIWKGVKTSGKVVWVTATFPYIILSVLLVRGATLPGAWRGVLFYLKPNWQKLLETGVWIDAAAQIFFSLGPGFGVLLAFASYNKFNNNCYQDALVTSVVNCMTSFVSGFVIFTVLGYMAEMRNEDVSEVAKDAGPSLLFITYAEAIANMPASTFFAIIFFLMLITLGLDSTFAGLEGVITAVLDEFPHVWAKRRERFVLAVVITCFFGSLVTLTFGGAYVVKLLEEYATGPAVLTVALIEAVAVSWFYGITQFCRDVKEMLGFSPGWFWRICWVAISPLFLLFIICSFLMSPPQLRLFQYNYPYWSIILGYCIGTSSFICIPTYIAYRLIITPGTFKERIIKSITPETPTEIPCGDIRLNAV
UniProt P23975, whole entry: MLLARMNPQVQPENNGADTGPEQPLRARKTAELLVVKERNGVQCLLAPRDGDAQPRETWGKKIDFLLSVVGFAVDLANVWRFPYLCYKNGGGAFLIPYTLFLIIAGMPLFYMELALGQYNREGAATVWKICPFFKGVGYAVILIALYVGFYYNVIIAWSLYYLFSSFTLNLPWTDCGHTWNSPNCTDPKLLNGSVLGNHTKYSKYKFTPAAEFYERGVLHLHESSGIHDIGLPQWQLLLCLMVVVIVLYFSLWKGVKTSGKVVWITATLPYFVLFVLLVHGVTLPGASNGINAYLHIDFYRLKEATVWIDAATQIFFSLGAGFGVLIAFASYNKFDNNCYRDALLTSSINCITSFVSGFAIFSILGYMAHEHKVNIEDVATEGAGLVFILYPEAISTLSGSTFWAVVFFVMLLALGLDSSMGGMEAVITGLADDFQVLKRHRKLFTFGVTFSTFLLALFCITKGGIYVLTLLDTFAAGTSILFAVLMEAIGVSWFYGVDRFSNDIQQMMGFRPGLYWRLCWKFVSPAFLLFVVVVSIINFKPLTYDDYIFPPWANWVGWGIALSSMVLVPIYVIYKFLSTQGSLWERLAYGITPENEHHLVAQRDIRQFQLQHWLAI

For assay [2], the species on record is Homo sapiens. In words: Selectivity ratio of Ki for human NET to Ki for human DAT.
Assay [3] is filed under the species Homo sapiens. In words: Selectivity ratio of Ki for human SERT to Ki for human DAT.
Assay [4] has as its target Sodium-dependent noradrenaline transporter (Homo sapiens, UniProt P23975). In words: Displacement of [125I]methyl 3-(4-iodophenyl)-8-methyl-8-aza-bicyclo[3.2.1]octane-2-carboxylate from human recombinant NET expressed in african green monkey COS1 cells by liquid scintillation counting. Format: cell-based, COS-1. Put shortly: as §1

SMILES strings stand for the structures.

Take `COC(=O)[C@@H]1C2CCC(C[C@@H]1c1ccc(Cl)cc1)N2C` (some centres undefined): the Ki (usually the equilibrium dissociation constant of an inhibitor or competing ligand from its target) in assay [1] was 21 nM; in assay [4], 39 nM. For the same compound, the results for the Ratio Ki in the assay filed under Homo sapiens [2] and in the assay listed under Homo sapiens [3] were 14 and 7.8, respectively.

The values above are taken from ChEMBL document CHEMBL1152507, “An extended study of dimeric phenyl tropanes” (Bioorg Med Chem, 2009).
